In patent US20090029984A1 (priority 2005, published 2009):
Read-outs that look alike come from different tables or passages of the source.

Tested on: mice

What does the source list for `CCOC(=O)c1c(C)cc2nc(COC(=O)NCCO)n(-c3ccccc3S(=O)(=O)NC)c(=O)c2c1C` [Compound 1a, 2-(2-Hydroxy-ethylcarbamoyloxymethyl)-5,7-dimethyl-3-(2-methylsulfamoylphenyl)-4-oxo-3,4-dihydro-quinazoline-6-carboxylic acid ethyl ester]?
% of MPE (Compound 1a 0.1 μmol/kg i.v. co-administered with Fentanyl 0.05 μmol/kg): 33.2%; % of MPE (Compound 1a 0.3 μmol/kg i.v. co-administered with Fentanyl 0.05 μmol/kg): 37.1%; % of MPE (Compound 1a 1.0 μmol/kg i.v. co-administered with Fentanyl 0.05 μmol/kg): 53.9%; combination versus opioid on its own (in words) (Compound 1a 1.0 μmol/kg with morphine, fentanyl or codeine, Dunn's post-test P<0.05): significantly different
